In patent publication US20220023401A1 (priority 2020, published 2022):
Where “and” joins values, the source holds several entries; their conditions need not be identical. Identical values can stand only once.

Key:
[1] = system: anti-Aβ antibodies in sera of immunized patients; assay type: binding, human
[2] = system: sera from vaccinated baboons (anti-Aβ antibodies); assay type: binding
Aβ1-42 = system: Aβ1-42; design: species or system guinea pigs; conditions: guinea pig, in vivo
[3] = system: antisera from immunized Cynomolgus macaques; assay type: binding; design: Specificity analysis of antisera (ELISA reactivity with peptide): unit not given here

| Sequence | reaction of 10-mer peptide with immunized sera [1] | reaction of 10-mer peptide with immune sera [2] | immunogenicity of the peptide on its own (Aβ1-42) | reactivity of 10-mer peptide with macaque immune sera [3] | ELISA Titer (Log10) [2] | Specificity analysis of antisera (ELISA reactivity with peptide) [3] |
| --- | --- | --- | --- | --- | --- | --- |
| DAEFRHDSGY [SEQ ID NO: 6, Aβ1-10] | reacted most strongly | reacted strongly | non-immunogenic | strong specificity |  |  |
| EVHHQKLVFF (PEPTIDE (1)..(10) Abeta 11-20 or APP 770(E682-F691); listed as Homo sapiens) [SEQ ID NO: 26] |  |  |  |  | 0.17 Log10 and 0.26 Log10 and 0.13 Log10 | 0.044 and 0.051 and 0.042 |
| VHHQKLVFFA (PEPTIDE (1)..(10) Abeta 12-21 or APP 770(V683-A692); listed as Homo sapiens) [SEQ ID NO: 27] |  |  |  |  | 0.16 Log10 and 0.23 Log10 and 0.12 Log10 and 0.11 Log10 | 0.046 and 0.082 and 0.057 and 0.083 |
